Test results from ChEMBL document CHEMBL1127448, “Synthesis, ligand binding, and QSAR (CoMFA and classical) study of 3 beta-(3'-substituted phenyl)-, 3 beta-(4'-substituted phenyl)-, and 3 beta-(3',4'-disubstituted phenyl)tropane-2 beta-carboxylic acid methyl esters” (J Med Chem, 1994).

The chains behind the UniProt entries cited, without tags or fusion partners.
UniProt P23977, whole entry: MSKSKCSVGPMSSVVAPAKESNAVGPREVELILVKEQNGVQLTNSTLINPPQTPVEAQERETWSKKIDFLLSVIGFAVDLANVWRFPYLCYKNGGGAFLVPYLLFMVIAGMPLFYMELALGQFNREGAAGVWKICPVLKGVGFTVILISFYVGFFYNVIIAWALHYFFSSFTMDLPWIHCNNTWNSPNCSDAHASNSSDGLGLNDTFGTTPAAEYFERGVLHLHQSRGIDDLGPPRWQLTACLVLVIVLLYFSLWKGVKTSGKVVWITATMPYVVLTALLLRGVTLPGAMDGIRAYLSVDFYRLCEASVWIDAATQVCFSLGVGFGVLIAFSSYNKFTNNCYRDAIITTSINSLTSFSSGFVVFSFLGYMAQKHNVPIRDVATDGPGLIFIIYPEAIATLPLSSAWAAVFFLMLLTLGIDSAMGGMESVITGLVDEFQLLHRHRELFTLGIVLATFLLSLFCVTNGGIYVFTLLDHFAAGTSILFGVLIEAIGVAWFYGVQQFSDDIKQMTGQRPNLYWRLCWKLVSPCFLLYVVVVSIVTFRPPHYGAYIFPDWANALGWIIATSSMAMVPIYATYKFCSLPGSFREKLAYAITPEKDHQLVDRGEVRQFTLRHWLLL

Biological target: Sodium-dependent dopamine transporter (Rattus norvegicus, UniProt P23977)
Test: Concentration required to inhibit 50% of radioligand binding ([3H]WIN-35428) to the dopamine (DA) transporter in rat

COC(=O)[C@@H]1C2CC[C@H](C[C@@H]1c1ccc(OC)cc1)N2C
IC50: 9.2 nM
